From US11230719B2, “Retroviral vector having immune-stimulating activity” (DENOVO BIOPHARMA LLC, priority 2014, dated 2022)

System: CTLL-2
Test: IL-2 bioactivity, CTLL-2 proliferation (3H-thymidine incorporation)
Assay type: cell-based, mouse
Details: produced by HA-L2 cells; vs recombinant IL-2 from E. coli
Protocol: To measure the bioactivity of recombinant hIL-2 and mIL-2 produced from the HA-L2 cells, cell proliferation assay is performed using a murine cytotoxic T-cell line derived from C57/Bl/6 mouse strain, CTLL-2, which constitutively express IL-2 receptors. CTLL-2 cell growth depends greatly on the presence of IL-2. The bioactivity of IL-2 is determined by the level of ^3H-thymidine incorporation into the DNA of proliferating cells. Due to >60% homology between mouse and human IL-2, the cell line responds to both hIL-2 and mIL-2 in a dose dependent manner in the concentration range of approximately 50 pg/mL to 50 ng/mL. […] In addition, the level of CD expression from pBA9b-IFNg-yCD2 transduced HA-L2 cells is also detected by immunoblotting using an antibody against CD.

“hIL-2: recombinant human IL-2 produced by the HA-L2 cells” was tested, and the IL-2 bioactivity was “comparable”.
